The results in this text go back to patent US11185100B2 (priority 2014, dated 2021).

Protein sequences, listed by entry. Tags and fused reporters are not part of them. Residues count along the entry.
UniProt E3UMS2, 1-296: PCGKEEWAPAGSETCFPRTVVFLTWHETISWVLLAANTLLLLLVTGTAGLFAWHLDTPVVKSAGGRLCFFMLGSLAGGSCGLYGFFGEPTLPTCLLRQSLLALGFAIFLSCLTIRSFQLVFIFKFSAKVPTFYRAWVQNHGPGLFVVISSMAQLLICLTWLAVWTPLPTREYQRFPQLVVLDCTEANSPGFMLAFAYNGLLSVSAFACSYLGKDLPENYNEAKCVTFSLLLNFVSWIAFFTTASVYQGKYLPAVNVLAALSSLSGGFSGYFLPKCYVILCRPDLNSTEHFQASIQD

pEC50: −log10 of the molar value.

Experiment [1] has as its target T1, cat T1R1/T1R3 receptor (Felis catus, UniProt E3UMS2). As to the kind of experiment: Activation of cat T1R1/T1R3 receptor by nucleotide derivatives alone, with alanine and/or IMP; HEK293 cells, intracellular calcium fluorescence (Example 1). The class given is cell-based. The conditions noted are these: read-out: EC50- with IMP; with 0.2 mM IMP.
Experiment [2] deals with T1, cat T1R1/T1R3 receptor.

As to `O=C(Nc1ncnc2c1ncn2[C@@H]1O[C@H](COP(=O)(O)O)[C@@H](O)[C@H]1O)c1ccccc1`, the negative-log EC50 (pEC50) in experiment [1] is 3.14. For the same compound, the “Threshold” value in experiment [2] amounted to 0.3 mM.
